The text below walks through data of patent US11173137B2, “Compositions and methods to modulate chloride ion channel activity” (The Board of Trustees of the Leland Stanford Junior …, priority 2018, dated 2021).

Sequences of proteins named here, by UniProt entry; tags and fusion partners are left off.
UniProt P51788, whole entry: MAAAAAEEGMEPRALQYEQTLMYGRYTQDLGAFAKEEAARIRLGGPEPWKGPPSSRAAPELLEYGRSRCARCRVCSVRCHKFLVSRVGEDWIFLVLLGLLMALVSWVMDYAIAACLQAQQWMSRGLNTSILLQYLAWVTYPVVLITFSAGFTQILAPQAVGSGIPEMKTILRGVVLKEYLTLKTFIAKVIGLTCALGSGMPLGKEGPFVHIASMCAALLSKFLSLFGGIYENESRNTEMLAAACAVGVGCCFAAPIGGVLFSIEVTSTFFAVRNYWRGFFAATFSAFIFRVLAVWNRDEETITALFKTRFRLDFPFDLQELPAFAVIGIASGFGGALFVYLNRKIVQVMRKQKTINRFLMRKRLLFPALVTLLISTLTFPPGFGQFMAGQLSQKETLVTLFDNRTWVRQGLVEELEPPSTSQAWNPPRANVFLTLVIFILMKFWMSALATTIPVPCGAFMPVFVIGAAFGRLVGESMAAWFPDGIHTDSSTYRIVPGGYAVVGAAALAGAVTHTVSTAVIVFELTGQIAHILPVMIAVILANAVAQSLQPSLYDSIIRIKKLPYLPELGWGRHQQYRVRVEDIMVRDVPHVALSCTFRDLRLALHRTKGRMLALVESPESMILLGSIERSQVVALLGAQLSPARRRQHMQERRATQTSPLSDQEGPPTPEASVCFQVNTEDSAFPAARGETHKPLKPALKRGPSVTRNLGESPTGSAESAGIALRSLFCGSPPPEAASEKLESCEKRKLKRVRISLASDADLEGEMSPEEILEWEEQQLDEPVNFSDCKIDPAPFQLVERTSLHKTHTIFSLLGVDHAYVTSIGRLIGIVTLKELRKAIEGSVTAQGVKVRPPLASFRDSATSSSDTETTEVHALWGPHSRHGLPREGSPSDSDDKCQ

The assay deals with CLC-2 (Homo sapiens (Human), UniProt P51788). Put plainly: IonWorks Barracuda automated patch-clamp electrophysiology, human CLC-2 cell line. Type of assay: cell-based. The note with it: read-out: IC50 (μM) against CLC-2, n = 4 cells, four concentrations of each compound.

Molecules are shown by their SMILES.

For `Cc1ccc(Nc2c(Cl)ccc(C)c2Cl)c(C(=O)O)c1`, the IC50 worked out at 37.9 µM.
